Test results reported in ChEMBL document CHEMBL6127080, “Design, synthesis and biological evaluation of novel diphenylamine analogues as NLRP3 inflammasome inhibitors” (Bioorg Med Chem, 2024).

Amino acid sequences for entries named in this document (tags omitted).
UniProt Q8R4B8, whole entry: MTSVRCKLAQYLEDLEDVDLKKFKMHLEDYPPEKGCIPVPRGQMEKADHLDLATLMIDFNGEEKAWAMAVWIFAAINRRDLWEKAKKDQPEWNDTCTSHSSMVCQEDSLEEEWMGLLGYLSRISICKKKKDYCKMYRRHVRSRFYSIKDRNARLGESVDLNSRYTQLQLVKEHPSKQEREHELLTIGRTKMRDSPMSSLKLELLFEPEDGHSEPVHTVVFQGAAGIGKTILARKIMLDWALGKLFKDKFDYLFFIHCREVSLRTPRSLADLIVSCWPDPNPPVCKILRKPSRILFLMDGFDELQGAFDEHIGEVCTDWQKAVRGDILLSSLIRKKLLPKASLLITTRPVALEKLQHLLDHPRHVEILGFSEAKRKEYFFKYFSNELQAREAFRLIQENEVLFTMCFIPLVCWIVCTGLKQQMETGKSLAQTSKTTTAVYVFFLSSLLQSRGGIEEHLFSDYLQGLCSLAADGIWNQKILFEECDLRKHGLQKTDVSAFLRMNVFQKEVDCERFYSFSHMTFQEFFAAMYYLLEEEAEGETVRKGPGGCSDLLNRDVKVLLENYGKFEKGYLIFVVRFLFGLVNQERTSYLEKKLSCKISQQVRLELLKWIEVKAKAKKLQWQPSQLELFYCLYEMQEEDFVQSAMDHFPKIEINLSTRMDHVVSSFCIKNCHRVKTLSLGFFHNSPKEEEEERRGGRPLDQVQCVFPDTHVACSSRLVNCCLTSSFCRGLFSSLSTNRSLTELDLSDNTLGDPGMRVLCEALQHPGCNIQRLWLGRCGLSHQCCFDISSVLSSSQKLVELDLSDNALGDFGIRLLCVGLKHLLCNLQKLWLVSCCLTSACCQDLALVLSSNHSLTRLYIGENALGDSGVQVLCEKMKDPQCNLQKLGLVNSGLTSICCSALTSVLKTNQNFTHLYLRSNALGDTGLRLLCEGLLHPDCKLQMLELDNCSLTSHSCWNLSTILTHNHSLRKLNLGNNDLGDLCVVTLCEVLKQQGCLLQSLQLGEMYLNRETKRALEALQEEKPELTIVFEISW

Key:
[1] = target: NACHT, LRR and PYD domains-containing protein 3 (Mus musculus) (UniProt Q8R4B8); assay: Inhibition of NLRP3 inflammasome activation in mouse […] cells assessed as reduction in LPS/ATP-induced IL-1 beta release at 1 uM pretreated with LPS for 4.5 hrs followed by compound addition for 30 mins prior to ATP addition and measured after 30 mins by ELISA relative to control; assay type: cell-based; settings: J774.A1, time 5.5 hrs
[2] = target: NACHT, LRR and PYD domains-containing protein 3 (Mus musculus) (UniProt Q8R4B8); assay: Inhibition of NLRP3 inflammasome activation in mouse […] cells assessed as reduction in LPS/ATP-induced IL-1 beta release at 10 uM pretreated with LPS for 4.5 hrs followed by compound addition for 30 mins prior to ATP addition and measured after 30 mins by ELISA relative to control; assay type: cell-based; settings: J774.A1, time 5.5 hrs

inhibition [1]: 84.5%
inhibition [2]: 93.3%
SMILES: CCC(=O)Nc1ccc(-c2ccccc2N(Cc2cc(Cl)ccc2OCCOC)C(=O)c2ccc(F)cc2)cc1
